Test system: Clostridium camis
Test: Agar dilution MIC, anaerobes
Assay type: cell-based
Conditions: single isolates, anaerobic agar dilution

CC1(C)S[C@@H]2[C@H](NC(=O)[C@H](N)c3ccc(O)cc3)C(=O)N2[C@H]1C(=O)O [Amox] was tested, and the “MIC Clostridium camis” value was “<=.125 μg/ml”.
